Experimental data published in paper PMC11019746, “Illuminating Neuropeptide Y Y4 Receptor Binding: Fluorescent Cyclic Peptides with Subnanomolar Binding Affinity as Novel Molecular Tools” (ACS Pharmacology & Translational Science, 2024).

By UniProt entry, the sequences of proteins in these tests, tags left out. Chains listed by the source or under a name are the forms on record and can include a tag or linker.
UniProt P50391, with tags, fused parts or gaps with the stated changes: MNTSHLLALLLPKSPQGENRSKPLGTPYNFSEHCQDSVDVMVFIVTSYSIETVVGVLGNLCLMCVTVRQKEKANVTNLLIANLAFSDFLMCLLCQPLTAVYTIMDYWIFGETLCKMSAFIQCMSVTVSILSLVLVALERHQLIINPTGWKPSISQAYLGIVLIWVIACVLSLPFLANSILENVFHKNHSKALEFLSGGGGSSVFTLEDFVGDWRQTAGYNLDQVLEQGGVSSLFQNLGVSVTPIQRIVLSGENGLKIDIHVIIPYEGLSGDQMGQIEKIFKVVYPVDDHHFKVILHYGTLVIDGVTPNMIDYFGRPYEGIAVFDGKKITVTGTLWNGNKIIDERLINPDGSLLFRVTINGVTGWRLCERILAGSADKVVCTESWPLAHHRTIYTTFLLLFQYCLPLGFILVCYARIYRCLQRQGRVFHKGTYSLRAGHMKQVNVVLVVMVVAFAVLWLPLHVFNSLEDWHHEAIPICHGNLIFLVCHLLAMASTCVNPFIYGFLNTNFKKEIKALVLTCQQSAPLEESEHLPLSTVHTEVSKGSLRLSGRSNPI

What was measured:
hY4R [1] = molecular target: T1, hY4R (Homo sapiens, UniProt P50391); experiment: Y4R radioligand competition binding, whole CHO-hY4R-Gqi5-mtAEQ cells, [3H]UR-KK200; parameters: expressed in transfected cells; host or cells: CHO (co-expressing Gqi5 and mitochondrially targeted aequorin); settings: [3H]UR-KK200 c = 1 nM, read-out: pKi ± SEM hY4R (converted)
Experimental: All radioligand binding assays were performed at intact Y receptor expressing cells at 23 ± 2 °C.
(logarithmic form in the case of pKi values).

hY4R [2] = molecular target: T1, hY4R; experiment: Flow cytometric Y4R saturation and kinetic binding of fluorescent ligands (CHO-hY4R-Gqi5-mtAEQ cells); parameters: expressed in transfected cells; host or cells: CHO (co-expressing Gqi5 and mitochondrially targeted aequorin); settings: buffer I (Na+-free), 22 ± 2 °C
hY4R-Nluc(intraECL2) = hY4R-Nluc(intraECL2) (Homo sapiens, UniProt P50391, INS195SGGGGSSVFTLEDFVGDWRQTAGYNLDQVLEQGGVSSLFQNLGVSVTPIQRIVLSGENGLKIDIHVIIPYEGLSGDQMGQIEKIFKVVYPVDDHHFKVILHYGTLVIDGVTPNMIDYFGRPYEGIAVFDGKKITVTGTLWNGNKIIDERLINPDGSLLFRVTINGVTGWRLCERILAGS); format: binding; parameters: expressed in transfected cells
hY5R = molecular target: T2, hY5R (Homo sapiens, UniProt Q15761); settings: HEC-1B-hY5R cells; read-out: Kd of radioligand at Y5R; cited from earlier work
T2 construct: expressed in transfected cells; host or cells: HEC-1B (human endometrial cancer)
T2 sequence (Q15761 1-445): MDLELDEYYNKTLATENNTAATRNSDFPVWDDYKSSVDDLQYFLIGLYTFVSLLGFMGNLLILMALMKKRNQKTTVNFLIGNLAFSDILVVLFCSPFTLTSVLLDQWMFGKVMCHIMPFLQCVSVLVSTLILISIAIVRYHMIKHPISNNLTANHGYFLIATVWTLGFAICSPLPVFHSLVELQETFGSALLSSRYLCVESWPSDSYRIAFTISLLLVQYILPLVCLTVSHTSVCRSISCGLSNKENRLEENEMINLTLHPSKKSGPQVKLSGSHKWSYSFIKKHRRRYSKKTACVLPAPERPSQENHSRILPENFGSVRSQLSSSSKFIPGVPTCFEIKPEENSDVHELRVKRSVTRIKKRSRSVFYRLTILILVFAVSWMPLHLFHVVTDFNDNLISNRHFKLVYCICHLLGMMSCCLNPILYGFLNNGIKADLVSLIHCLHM

| Molecule | Ki (hY4R [1]) | Kd (hY4R [2]; saturation binding Kd) | Kd (hY4R [2]; saturation binding pKd) | Kd (hY4R-Nluc(intraECL2); koff(bi,fast)/kon(bi,fast), read-out: Kd(kin) bi, fast) | Kd (hY4R-Nluc(intraECL2); koff(mono)/kon(mono), read-out: Kd(kin) mono) | Kd (hY5R) |
| --- | --- | --- | --- | --- | --- | --- |
| CC(C)C[C@H](NC(=O)[C@@H]1CCCNC(N)=NC(=O)NCCCCNC(=O)[C@H](NC(=O)CCCNC(=O)CCC#Cc2ccc3c(c2)C(C)(C)C2=C4C=C5C6=[N+](CCC5OC4CCN23)c2ccc(S(=O)(=O)[O-])cc2C6(C)C)CC(=O)N[C@@H](CCCNC(=N)N)C(=O)N[C@@H](Cc2ccc(O)cc2)C(=O)N1)C(=O)N[C@@H](CCCNC(=N)N)C(=O)N[C@@H](Cc1ccc(O)cc1)C(N)=O (stereo partly drawn) [Compound 16] | 0.195 nM | 0.3 nM | 0.275 nM | 1.4 nM | 0.3 nM |  |
| [^3H]propionyl-pNPY: tritiated propionylated porcine neuropeptide Y, radioligand for Y2R and Y5R |  |  |  |  |  | 11 nM |

Where two headings read alike, the source gives them in different places.
